Patent publication US8143072B2, “System for detecting nanoparticles using modulated surface plasmon resonance” (The University of Toledo, priority 2006, dated 2012)

Experiment: Chemical and storage stability
Type: physicochemical
Settings: room temperature, stored under a nitrogen atmosphere

p-[4-(N-(3-Triethoxysilylpropylamino)succinamido)]-benzyl 4,6-O-benzylidene-2-deoxy-2-phthalimido-β-D-glucopyranoside [glucosamine 14]
storage stability: stable
